US20240245770A1, “COMPOSITIONS AND METHODS FOR TREATING NEUROMUSCULAR DISORDERS” (The Regents of the University of California, priority 2019, published 2024)

Experiments:
[1] = system: NK cells with autologous or allogeneic monocytes; experiment: NK ELISA, IFN-γ secretion by NK cells cultured with monocytes; assay type: cell-based, human
Method: ALS patient's NK cells increase secretion of IFN-g with both autologous and allogeneic monocytes indicating potential priming of the NK cells (FIG. 15). IFN-g release of NK with different donor monocytes. Purified NK cells were treated with the combination of IL-2 and anti-CD16 mAb (3 μg/ml), and cultured with autologous and allogeneic monocytes at (1:1 NK:monocyte ratios). After an overnight treatment at 37° C., the supernatants were removed and IFN-g secretion was measured using ELISA.
(§1) NK ELISA. Purified NK cells were treated with IL-2 (1000 U/mL) or treated with the combination of IL-2 and anti-CD16 mAb (3 μg/ml) or IL-2+sAJ2 (Cells:sAJ2 1:20) and cultured with autologous monocytes at (1:1 NK:monocyte ratios). After an overnight treatment at 37° C., the supernatants were harvested and the levels of IFN-γ secretion were measured using ELISA (Table 30).
as §1, with “allogeneic” for “autologous”, “31).” for “30).”
as §1, with “Elisa.” for “ELISA.”, “40).” for “30).”

[2] = system: Purified NK cells; experiment: NK ELISA, IFN-γ secretion by purified NK cells; assay type: cell-based, human; conditions: for IFN-γ secretion by the NK cells, Mean: Table 205
Method: Human ELISA kits for IFN-γ and IL-6 were purchased from Biolegend (San Diego, CA). The assay was conducted as recommended by the manufacturer. For certain experiments multiplex arrays were used to determine the levels of secreted cytokines and chemokines. Analysis was performed using MAGPIX (Millipore, MA) and data was analyzed using xPONENT 4.2.
NK ELISA. NK cells were isolated from PBMC following manufacturer's instruction. Purified NK cells were left untreated, treated with IL-2 (1000 U/mL) or treated with the combination of IL-2 and anti-CD16 mAb (3 μg/ml) or IL-2+sAJ2 (Cells:sAJ2 1:20). After an overnight treatment at 37° C., the supernatants were harvested and the levels of IFN-γ secretion were measured using ELISA (Table 21).

Recombinant human IL-2 was tested, and the “IFN-γ secretion (ELISA)” value ([1]; H80 DM NK (1:5) + H83 JC monocyte (1:5)) was 155.05, the “IFN-γ secretion (ELISA)” value ([1]; H80 DM NK + auto monocyte, 1:5 dilution) was 430.49 and the “IFN-γ secretion (ELISA)” value ([1]; H81 JC (ALS) NK + auto monocyte, 1:5 dilution) was 166.13. For the same substance, the “IFN-γ secretion (ELISA)” value ([1]; H81 JC NK (1:5) + P83 SS monocyte) was 238.57, the “IFN-γ secretion (ELISA)” value ([1]; H82 TC (healthy twin) NK + auto monocyte, 1:5 dilution) was 224.60 and the “IFN-γ secretion (ELISA)” value ([1]; H82 TC NK (1:5) + H83 JC monocyte (1:5)) was 79.89. For the same substance, the “IFN-γ secretion (ELISA)” value ([1]; H82 TC NK (1:5) + P83 SS monocyte) was 107.03, the “IFN-γ secretion (ELISA)” value ([1]; H83 JC NK (1:5) + H80 DM monocyte) was 163.40 and the “IFN-γ secretion (ELISA)” value ([1]; H83 JC NK (1:5) + H82 TC monocyte) was 80.93. For the same substance, the “IFN-γ secretion (ELISA)” value ([1]; H84 JC NK + auto monocyte, 1:8 dilution) was 862.26, the “IFN-γ secretion (ELISA)” value ([1]; H84 JC monocyte alone, 1:8 dilution) was 571.73 and the “IFN-γ secretion (ELISA)” value ([1]; H85 TC NK + auto monocyte, 1:8 dilution) was 322.96. The “IFN-γ secretion (ELISA)” value ([1]; H85 TC monocyte alone, 1:8 dilution) was 616.97, the “IFN-γ secretion (ELISA)” value ([1]; P82 SS NK + H81 JC monocyte (1:5)) was 123.73 and the “IFN-γ secretion (ELISA)” value ([1]; P82 SS NK + H82 TC monocyte (1:5)) was 396.21. The “IFN-γ secretion (ELISA)” value ([1]; P82 SS NK + auto monocyte, 1:5 dilution) was 180.13, the “IFN-γ secretion (ELISA)” value ([2]; H65 SM NK, (1:5)) was 24.6 and the “IFN-γ secretion (ELISA)” value ([2]; H66 JC (ALS) NK, (1:5)) was 137.4. The “IFN-γ secretion (ELISA)” value ([2]; H70 JC (ALS) NK (1:5)) was 1478.8, the “IFN-γ secretion (ELISA)” value ([2]; H80 DM NK alone, 1:5 dilution) was 228.72 and the “IFN-γ secretion (ELISA)” value ([2]; H81 JC (ALS) NK alone, 1:5 dilution) was 400.84. The “IFN-γ secretion (ELISA)” value ([2]; H82 TC (healthy twin) NK alone, 1:5 dilution) was 337.43, the “IFN-γ secretion (ELISA)” value ([2]; H84 JC NK alone, 1:8 dilution) was 248.16 and the “IFN-γ secretion (ELISA)” value ([2]; H85 TC NK alone, 1:8 dilution) was 342.10. For the same substance, the “IFN-γ secretion (ELISA)” value ([2]; H117 JC NK, straight, overnight treatment) was 496.896, the “IFN-γ secretion (ELISA)” value ([2]; H118 TC NK, straight, overnight treatment) was 406.875 and the IFN-γ release ([2]; H171 JC NK (1:5), ALS) was 157.01. The IFN-γ release ([2]; H172 TC NK (1:5), control twin) was 27.63, the IFN-γ release ([2]; H174 JC NK (1:5), ALS) was 20.15 and the IFN-γ release ([2]; H175 TC NK (1:5), control twin) was 608.98. For the same substance, the “IFN-γ secretion by the NK cells, Mean” value ([2]; H195 RS NK (1:5)) was 0.00, the “IFN-γ secretion by the NK cells, Mean” value ([2]; H196 TC NK (1:5)) was 0.00 and the “IFN-γ secretion, Mean” value ([2]; H211 JC NK (1:5)) was 6.33. The IFN-γ secretion ([2]; H211 JC NK straight) was 102.81, the “IFN-γ secretion, Mean” value ([2]; H212 TC NK (1:5)) was 0.00 and the IFN-γ secretion ([2]; H212 TC NK straight) was 29.51. The “IFN-γ secretion, Mean” value ([2]; H213 JC NK (1:5)) was 29.09, the IFN-γ secretion ([2]; H213 JC NK straight) was 26.07 and the “IFN-γ secretion, Mean” value ([2]; H214 TC NK (1:5)) was 0.00. The IFN-γ secretion ([2]; H214 TC NK straight) was 22.45, the “IFN-γ secretion, ELISA, NK1:5 Mean” value ([2]; NK of H102 JC, overnight treatment) was 121.79 and the “IFN-γ secretion, ELISA, NK1:5 Mean” value ([2]; NK of H103 TC, overnight treatment) was 73.19. For the same substance, the “IFN-γ secretion, ELISA, NK1:5 Mean” value ([2]; NK of H104 RS, overnight treatment) was 97.72, the “IFN-γ secretion (ELISA)” value ([2]; P65 LP NK, (1:5)) was 56.2 and the “IFN-γ secretion (ELISA)” value ([2]; P82 SS NK alone, 1:5 dilution) was 526.84. For the same substance, the “IFN-γ secretion, ELISA, Mean” value ([2]; P113 HA NK, Straight, overnight treatment at 37° C.) was 0.00.
